What was measured:
TAOK3 (human) = TAOK3 (human) (UniProt Q9H2K8); assay: KINOMEscan competition binding; conditions: compound 10.0 µM
MAP3K7 (human) = MAP3K7 (human) (UniProt O43318); assay: KINOMEscan competition binding; conditions: compound 10.0 µM

The chains behind the UniProt entries cited, without tags or fusion partners. Where a name states a change or a piece, a line headed by the entry shows the natural chain unless it says otherwise.
UniProt Q9H2K8: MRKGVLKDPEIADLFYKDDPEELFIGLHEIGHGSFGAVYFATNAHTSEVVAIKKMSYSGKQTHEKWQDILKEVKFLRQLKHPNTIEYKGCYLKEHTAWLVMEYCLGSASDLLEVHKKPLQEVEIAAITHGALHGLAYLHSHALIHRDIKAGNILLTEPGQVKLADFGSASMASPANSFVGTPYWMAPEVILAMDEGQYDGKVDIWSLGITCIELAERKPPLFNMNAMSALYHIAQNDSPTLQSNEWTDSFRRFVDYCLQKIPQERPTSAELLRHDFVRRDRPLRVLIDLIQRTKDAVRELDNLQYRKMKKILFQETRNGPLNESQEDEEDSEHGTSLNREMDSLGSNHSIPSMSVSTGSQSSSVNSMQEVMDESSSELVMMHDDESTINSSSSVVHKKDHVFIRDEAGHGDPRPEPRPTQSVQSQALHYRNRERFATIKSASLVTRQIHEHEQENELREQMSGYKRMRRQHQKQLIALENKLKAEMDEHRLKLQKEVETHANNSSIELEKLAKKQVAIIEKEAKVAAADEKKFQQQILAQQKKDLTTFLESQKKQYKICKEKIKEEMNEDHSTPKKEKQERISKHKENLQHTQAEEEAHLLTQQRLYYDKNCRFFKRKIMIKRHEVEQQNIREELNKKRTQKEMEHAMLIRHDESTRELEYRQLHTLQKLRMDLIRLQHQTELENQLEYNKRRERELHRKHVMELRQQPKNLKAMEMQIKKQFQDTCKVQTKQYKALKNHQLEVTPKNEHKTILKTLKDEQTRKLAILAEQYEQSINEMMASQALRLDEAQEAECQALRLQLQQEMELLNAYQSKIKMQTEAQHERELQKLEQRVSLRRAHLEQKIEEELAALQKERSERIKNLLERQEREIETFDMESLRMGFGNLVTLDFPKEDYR
UniProt O43318: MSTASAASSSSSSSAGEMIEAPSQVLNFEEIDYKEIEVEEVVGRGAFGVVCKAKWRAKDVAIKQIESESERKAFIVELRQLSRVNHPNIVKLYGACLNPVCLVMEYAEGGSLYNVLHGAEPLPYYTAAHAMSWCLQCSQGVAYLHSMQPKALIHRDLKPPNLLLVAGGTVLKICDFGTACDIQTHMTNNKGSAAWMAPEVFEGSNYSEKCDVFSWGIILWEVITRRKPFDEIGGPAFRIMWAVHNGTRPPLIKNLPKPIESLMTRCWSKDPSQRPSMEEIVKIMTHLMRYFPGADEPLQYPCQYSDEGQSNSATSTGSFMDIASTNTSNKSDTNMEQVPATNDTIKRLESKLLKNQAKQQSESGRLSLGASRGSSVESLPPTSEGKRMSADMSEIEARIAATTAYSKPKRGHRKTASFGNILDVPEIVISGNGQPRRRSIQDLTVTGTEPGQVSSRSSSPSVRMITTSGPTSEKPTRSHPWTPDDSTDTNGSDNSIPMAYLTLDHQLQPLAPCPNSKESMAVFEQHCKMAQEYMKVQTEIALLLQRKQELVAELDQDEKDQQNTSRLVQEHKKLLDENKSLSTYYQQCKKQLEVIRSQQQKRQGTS

Question: With CCN1CCN(Cc2ccc(NC(=O)c3ccc(C)c(Oc4ccnc5[nH]ccc45)c3)cc2C(F)(F)F)CC1 as the compound, how does the kinase still bound, per cent of control (TAOK3 (human)) read?
Answer: 0.15%

Question: What about the kinase still bound, per cent of control (MAP3K7 (human)) of the same compound?
Answer: 0.15%

Reference: the kinase profiling compilation of Christmann-Franck et al. (2016)
